SMILES strings stand for the structures.

The chains behind the UniProt entries cited, without tags or fusion partners. Residues count along the entry.
UniProt P10636, 623-708 limits assumed: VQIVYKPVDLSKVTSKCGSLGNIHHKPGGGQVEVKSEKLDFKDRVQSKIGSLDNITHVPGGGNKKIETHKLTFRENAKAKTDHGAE
UniProt P05067, 672-711 limits assumed: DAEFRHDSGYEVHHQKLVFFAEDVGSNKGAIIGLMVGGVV
UniProt P21397, whole entry: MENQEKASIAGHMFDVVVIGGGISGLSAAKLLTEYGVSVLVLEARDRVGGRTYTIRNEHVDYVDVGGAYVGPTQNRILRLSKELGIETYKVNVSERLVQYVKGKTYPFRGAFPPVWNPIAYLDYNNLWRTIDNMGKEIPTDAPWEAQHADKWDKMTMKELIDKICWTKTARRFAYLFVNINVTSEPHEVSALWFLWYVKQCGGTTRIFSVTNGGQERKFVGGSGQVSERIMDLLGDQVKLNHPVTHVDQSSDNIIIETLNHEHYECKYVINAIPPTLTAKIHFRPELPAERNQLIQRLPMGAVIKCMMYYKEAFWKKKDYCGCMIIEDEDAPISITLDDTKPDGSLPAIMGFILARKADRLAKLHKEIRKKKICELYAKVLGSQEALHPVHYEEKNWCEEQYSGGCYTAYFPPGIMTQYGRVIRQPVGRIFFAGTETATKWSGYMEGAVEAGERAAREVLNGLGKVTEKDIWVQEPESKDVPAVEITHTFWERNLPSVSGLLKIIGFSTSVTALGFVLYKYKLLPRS
UniProt Q64133, whole entry: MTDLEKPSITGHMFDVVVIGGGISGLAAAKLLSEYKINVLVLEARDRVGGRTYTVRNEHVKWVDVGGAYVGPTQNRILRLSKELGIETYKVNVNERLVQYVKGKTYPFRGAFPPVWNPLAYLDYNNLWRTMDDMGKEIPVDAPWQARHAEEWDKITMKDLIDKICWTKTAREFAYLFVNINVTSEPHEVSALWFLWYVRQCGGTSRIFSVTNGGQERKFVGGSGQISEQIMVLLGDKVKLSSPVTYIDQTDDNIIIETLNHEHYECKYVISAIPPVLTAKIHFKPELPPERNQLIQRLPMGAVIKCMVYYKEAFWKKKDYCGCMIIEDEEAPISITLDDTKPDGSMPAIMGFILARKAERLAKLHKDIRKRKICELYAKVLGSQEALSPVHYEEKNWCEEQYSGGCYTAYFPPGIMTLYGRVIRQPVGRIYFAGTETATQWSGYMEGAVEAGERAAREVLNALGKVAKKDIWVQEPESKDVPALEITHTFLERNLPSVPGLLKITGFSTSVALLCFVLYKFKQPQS
UniProt P27338, whole entry: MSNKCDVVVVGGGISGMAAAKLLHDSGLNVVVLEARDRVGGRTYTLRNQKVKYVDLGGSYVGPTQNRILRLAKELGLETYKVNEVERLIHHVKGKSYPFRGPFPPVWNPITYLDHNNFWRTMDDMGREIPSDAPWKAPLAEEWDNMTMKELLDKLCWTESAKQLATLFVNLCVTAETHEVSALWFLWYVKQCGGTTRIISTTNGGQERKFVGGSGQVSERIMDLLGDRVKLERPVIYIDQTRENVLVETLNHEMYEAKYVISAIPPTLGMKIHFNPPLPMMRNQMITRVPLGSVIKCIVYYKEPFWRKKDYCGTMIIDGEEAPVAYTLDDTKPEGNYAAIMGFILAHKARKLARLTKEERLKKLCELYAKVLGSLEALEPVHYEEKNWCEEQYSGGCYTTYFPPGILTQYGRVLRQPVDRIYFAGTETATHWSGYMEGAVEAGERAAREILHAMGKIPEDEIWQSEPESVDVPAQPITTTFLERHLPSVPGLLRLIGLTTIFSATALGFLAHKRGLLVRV

One assay concerns the target Tau (Homo sapiens, UniProt P10636). The assay is described as follows: Tau binding in AD brain homogenate, competition with 18F-labeled Tau binder. Conditions: non-radioactive fluorine-19 derivatives. The arrangement: key: −: poor; ∘: moderate; +: good; ++: very good; +++: excellent. On the procedure: (§1) 20 μg of human Alzheimer disease brain homogenate was incubated with a dilution series of each test compound (1000 to 0.06 nM) in the presence of 800 Bq of ^18F-labeled Tau binder. The samples were shaken at 110 rpm for 45 min at 37° C. Samples were then filtered through GF/B 96 well filter plates and washed twice with 300 μL assay buffer (PBS containing 0.1% BSA and 2% DMSO). Thereafter, filter plates were sealed and a Fuji Film Imaging Plate (BAS-SR2025) was placed on top. The imaging plate was analyzed after overnight exposition using a Fuji Film BAS-5000. Non-specific signal was determined with samples containing ^18F-labeled Tau-reference binder in the presence of assay buffer without brain substrate and competitor. Specific binding was calculated by subtracting the non-specific signal from the measured samples signal. The unblocked ^18F-labeled Tau-binder signal was defined as total binding. IC50 values were calculated by Prism V6 (GraphPad) setting total binding to 100%.

The target of another assay is amyloid-beta (Homo sapiens, UniProt P05067). The assay is described as follows: Binding affinity to amyloid-beta in AD brain homogenate, competition with 18F-labeled beta-amyloid binder. The arrangement: key: −: poor; ∘: moderate; +: good; ++: very good; +++: excellent. The protocol: as §1, with “beta-amyloid” for “Tau”, “96-well” for “96 well”, “beta-amyloid” for “Tau-reference”, “beta-amyloid binder” for “Tau-binder”

Assay [1] concerns the target MAO A (Homo sapiens, UniProt P21397). The assay is described as follows: Binding affinity to MAO A in human HC brain homogenate, [18F]fluoroethyl harmine competition. Note: key: −: poor; ∘: moderate; +: good; ++: very good; +++: excellent. Conditions: human healthy control brain homogenate. On the procedure:
as §1, with “of” for “of human Alzheimer disease”, “homogenate (without AD pathology)” for “homogenate”, “18F-labeled MAO-A binder ([^18F]fluoroethyl harmine, FEH).” for “^18F-labeled Tau binder.”, “96-well” for “96 well”, “FEH” for “Tau-reference binder”, “FEH” for “Tau-binder”

For assay [2], the target named is MAO A (Mus musculus, UniProt Q64133). The assay is described as follows: Binding affinity to MAO A in mouse brain homogenate, [18F]fluoroethyl harmine competition. Note: key: −: poor; ∘: moderate; +: good; ++: very good; +++: excellent. The protocol:
as §1, with “of” for “of human Alzheimer disease”, “homogenate (without AD pathology)” for “homogenate”, “18F-labeled MAO-A binder ([^18F]fluoroethyl harmine, FEH).” for “^18F-labeled Tau binder.”, “96-well” for “96 well”, “FEH” for “Tau-reference binder”, “FEH” for “Tau-binder”

The target in another assay is MAO B (Homo sapiens, UniProt P27338). The assay is described as follows: Binding affinity to MAO B in HC brain homogenate, [18F]fluoro deprenyl competition. Note: key: −: poor; ∘: moderate; +: good; ++: very good; +++: excellent. The protocol: as §1, with “human” for “human Alzheimer disease”, “homogenate (without AD pathology)” for “homogenate”, “MAO-B binder ([^18F]fluoro deprenyl).” for “Tau binder.”, “96-well” for “96 well”, “fluoro deprenyl” for “Tau-reference binder”, “fluoro deprenyl” for “Tau-binder”

For the molecule `Fc1ccc(-c2ccc3c(n2)[nH]c2ccncc23)cn1`, the “High affinity to Tau” value on Tau is listed as “+++”. In addition, the “Low affinity to amyloid-beta” value on amyloid-beta is “+++”. Moreover, the “Low affinity to MAO A (HC homogenate)” value on MAO A [1] is reported as “+”. The “Low affinity to MAO A (mouse homogenate)” value on MAO A [2] is recorded as “++”. In addition, on MAO B, the “Low affinity to MAO B” value is reported as “+++”.
On to `Fc1ccc(-c2ccc3c(c2)[nH]c2ccncc23)cn1`, for which the “Low affinity to amyloid-beta” value on amyloid-beta was “+++”. Moreover, on MAO A [1], the “Low affinity to MAO A (HC homogenate)” value is “−”. Moreover, the “Low affinity to MAO A (mouse homogenate)” value on MAO A [2] is recorded as “+”. In addition, the “Low affinity to MAO B” value at MAO B is recorded as “+”.

Values taken from patent publication US20210041447A1, “AZACARBOLINE COMPOUNDS FOR THE DETECTION OF TAU AGGREGATES” (AC IMMUNE SA, priority 2018, published 2021).
